Experimental data published in paper PMC11106745 (ACS Chemical Biology, 2024).

Legend:
MacroD1 = biological target: T1, MacroD1 (Homo sapiens, UniProt Q9BQ69); assay: IC50 curves of binding to MacroD1 (Figure S2)
T1 construct: made in house
T1 sequence (Q9BQ69 1-325): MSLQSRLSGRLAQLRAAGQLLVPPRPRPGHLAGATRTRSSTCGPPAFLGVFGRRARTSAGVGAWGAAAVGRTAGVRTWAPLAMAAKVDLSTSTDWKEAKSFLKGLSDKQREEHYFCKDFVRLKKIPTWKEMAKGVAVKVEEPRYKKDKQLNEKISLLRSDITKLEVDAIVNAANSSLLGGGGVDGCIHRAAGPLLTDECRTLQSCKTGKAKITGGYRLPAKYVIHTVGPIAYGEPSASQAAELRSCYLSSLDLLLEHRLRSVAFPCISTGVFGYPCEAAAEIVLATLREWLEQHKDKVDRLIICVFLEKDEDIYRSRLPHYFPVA

MacroD2 = biological target: T2, MacroD2 (Homo sapiens, UniProt A1Z1Q3); assay: IC50 curves of binding to MacroD2 (Figure S2)
T2 construct: made in house
T2 sequence (A1Z1Q3 1-425): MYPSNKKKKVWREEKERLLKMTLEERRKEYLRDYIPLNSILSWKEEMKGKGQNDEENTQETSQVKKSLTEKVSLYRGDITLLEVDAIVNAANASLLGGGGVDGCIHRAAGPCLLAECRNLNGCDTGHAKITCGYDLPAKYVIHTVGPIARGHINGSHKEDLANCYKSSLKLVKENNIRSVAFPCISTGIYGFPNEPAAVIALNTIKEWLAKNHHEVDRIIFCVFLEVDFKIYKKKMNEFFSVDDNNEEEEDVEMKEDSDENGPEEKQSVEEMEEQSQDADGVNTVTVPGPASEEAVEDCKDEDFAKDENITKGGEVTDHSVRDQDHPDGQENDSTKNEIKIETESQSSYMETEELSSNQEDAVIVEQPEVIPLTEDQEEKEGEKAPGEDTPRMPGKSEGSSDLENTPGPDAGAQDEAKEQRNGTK

Substance “adenosine diphosphate ribose [ADPr, reference compound]” has an IC50 (MacroD1) of 1500 nM and an IC50 (MacroD2) of 1000 nM.
